Among the data in patent US20260364003A1, “EYE DROP MICROSUSPENSIONS OF MTOR INHIBITORS” (OCULIS OPERATIONS SARL, priority 2022, published 2026) are affinity for everolimus values, retold here.

Structures are written as SMILES.

This data set is described as follows: Phase-solubility of everolimus in aqueous cyclodextrin solutions. The following applies: pure aqueous cyclodextrin solutions, 25 °C. The class given is physicochemical. The protocol: The cyclodextrin concentration ranged from 0 to 10% (w/w) except that of β-cyclodextrin that ranged from 0 to 1.50% (w/w). Everolimus was added to each cyclodextrin solution in excess, the samples were continuously agitated on a magnetic stirrer for 24 hours. The next day the samples were filtered through 0.45 μm PES syringe filters and the concentration of dissolved everolimus determined by HPLC as described in Example 1.

Consider `OC[C@H]1O[C@@H]2O[C@H]3[C@H](O)[C@@H](O)[C@@H](O[C@H]4[C@H](O)[C@@H](O)[C@@H](O[C@H]5[C@H](O)[C@@H](O)[C@@H](O[C@H]6[C@H](O)[C@@H](O)[C@@H](O[C@H]7[C@H](O)[C@@H](O)[C@@H](O[C@H]8[C@H](O)[C@@H](O)[C@@H](O[C@H]9[C@H](O)[C@@H](O)[C@@H](O[C@H]1[C@H](O)[C@H]2O)O[C@@H]9CO)O[C@@H]8CO)O[C@@H]7CO)O[C@@H]6CO)O[C@@H]5CO)O[C@@H]4CO)O[C@@H]3CO` [γ-cyclodextrin], for which the affinity for everolimus entry is reported as “highest affinity”.
